Measured values published in patent publication US7507803B2, “Optimized multi-epitope constructs and uses thereof” (priority 2002, dated 2009).

Legend:
[1] = tested on: HLA supertype alleles; assay type: binding, human; conditions: A2, A3 or B7 supertype; five most common members
[2] = tested on: HLA transgenic mice; assay: CTL priming in HLA transgenic mice after DNA immunization (in situ IFNγ ELISA or chromium release); conditions: mouse, in vivo
[3] = tested on: H2^bxd mice; assay: CTL response after peptide/IFA immunization, in situ ELISA; assay type: in vivo, mouse; conditions: peptide/IFA immunization of H2^bxd mice
Source text: HLA-A1 and -A24 transgenic mice are not currently available. However, a significant degree of similarity exists between the binding motifs of HLA-A24 epitopes and the murine class I K^d. We therefore tested four of the vaccine HLA-A24 epitopes for their capacity to bind purified K^d molecules in vitro and assessed immunogenicity. […] IFN-γ responses after in vitro restimulation ranged from 158.7 to 339.6 SU. […] Thus, the H2^bxd can be used in the absence of HLA-A24 transgenic mice.

Structure (SMILES) | XRN (number of supertype alleles bound ≦500 nM) [1] | Immunogenicity of the epitope in construct HBV30C [2] | Murine Immunogenicity (SU) [3] [SU]
CC(C)C[C@H](NC(=O)[C@@H](N)Cc1ccccc1)C(=O)N1CCC[C@H]1C(=O)N[C@@H](CO)C(=O)N[C@@H](CC(=O)O)C(=O)N[C@@H](Cc1ccccc1)C(=O)N[C@@H](Cc1ccccc1)C(=O)N1CCC[C@H]1C(=O)N[C@@H](CO)C(=O)N[C@H](C(=O)O)C(C)C [core 18] | 5 | poorly immunogenic | 
CSCC[C@H](NC(=O)[C@H](Cc1ccc(O)cc1)NC(=O)[C@H](CO)NC(=O)[C@H](Cc1ccccc1)NC(=O)[C@H](C)NC(=O)[C@H](CC(C)C)NC(=O)[C@H](CS)NC(=O)[C@H](Cc1c[nH]cn1)NC(=O)[C@@H]1CCCN1C(=O)[C@@H](N)Cc1ccccc1)C(=O)O [pol 530] | 5 |  | 
CC[C@H](C)[C@H](NC(=O)[C@H](CCCCN)NC(=O)[C@H](CCC(=O)O)NC(=O)[C@H](C)NC(=O)[C@H](CO)NC(=O)[C@@H]1CCCN1C(=O)[C@@H](NC(=O)[C@H](Cc1ccc(O)cc1)NC(=O)[C@@H](N)CO)[C@@H](C)CC)C(=O)O [CS 252, reference compound] |  |  | 49.2
